Among the data in PubChem BioAssay AID2315 (National Center for Advancing Translational Sciences (NCATS), 2010) are inhibition values, retold here.

The list shows a part of the results, in another mix than the full data. Some results for these compounds are left out of this collection, so the calls shown say nothing about other tests. The source made the active and inactive calls. Rule as the data show it: active = inhibition mostly above about 28% (no sharp cut-off); inactive = mostly below about 43%.

One may read the inhibition as the relative decrease from the control value, in per cent.

The test is described as follows: A qHTS for Small Molecule Inhibitors of Shiga Toxin. Also: 0% is about no effect. As to conditions: Vero cells, Shiga toxin protein synthesis inhibition reporter; at 38.7 µM; hits give high values. (In general: qHTS replaces the single test concentration by a dilution series.)
For the compound `O=C(OC1CN2CCC1CC2)C(CO)(c1ccccc1)c1ccccc1` (centres undefined), the inhibition was inactive: -8.02%.
As for `CN(C)c1cccc(C(=O)NCC2(N(C)C)CCCCC2)c1`, the figure is inactive: 9.11%; as for `CC(C)Oc1ccc(C(=O)NCC2(N(C)C)CCCCC2)cc1`, inactive: -3.47%.
As for `COc1ccc(Br)c(C(=O)NCC2(N3CCCCC3)CCCCC2)c1`, the figure is inactive: -7.67%; as for `COc1cc(C(=O)NCC2(N(C)C)CCCCC2)c([N+](=O)[O-])cc1OC`, inactive: 22.2%.
As to `CN(C)C1(CNC(=O)c2ccc(Br)cc2)CCCCC1`, the inhibition is inactive: -0.728%.
With `O=C(NCC1(N2CCCCC2)CCCCC1)c1cccc(Cl)c1`, the inhibition was inactive: -8.2%.
Turning to `COc1cccc(C(=O)NCC2(N3CCCCC3)CCCCC2)c1`, the inhibition is inactive: -2.36%.
With `COc1ccc(Cl)cc1C(=O)NCC1(N(C)C)CCCCC1`, the inhibition was inactive: 22.3%.
Take `Cc1ccccc1C(=O)NCC1(N2CCCCC2)CCCCC1`: the inhibition was inactive: -7.75%.
Regarding `CN(C)c1ccc(C(=O)NCC2(N(C)C)CCCCC2)cc1`, the inhibition was inactive: 35.2%.
For the compound `CN(C)C1CCCC1OC(=O)C(O)(c1ccccc1)c1ccccc1` (centres undefined), the inhibition is inactive: -6.68%.
`CCN1CCCC(OC(=O)C2(O)c3ccccc3C=Cc3ccccc32)C1` (centres undefined): the inhibition was inactive: -7.7%.
As for `Cc1cc(C(=O)NCC2(N3CCCCC3)CCCCC2)ccc1[N+](=O)[O-]`, the figure is inactive: -11.2%.
In the case of `O=C(NCC1(N2CCCCC2)CCCCC1)c1cccc(Br)c1`, the inhibition was inactive: -3.61%.
As for `COc1ccc(C(=O)NCC2(N(C)C)CCCCC2)cc1`, the figure is inactive: 18.5%; as for `C=CCN1CCN(CCOC(=O)C(O)(c2ccccc2)c2ccccc2)CC1`, inactive: 2.51%; as for `O=C(NCC1(N2CCCCC2)CCCCC1)c1cc(F)c(F)cc1Cl`, inactive: -4.24%.
In the case of `CN1[C@@H]2CC[C@H]1CC(OC(=O)C(O)(c1ccccc1)c1ccccc1)C2` (some centres undefined), the inhibition is inactive: -19.7%.
As for `O=C(NCC1(N2CCCCC2)CCCCC1)c1cc([N+](=O)[O-])ccc1Cl`, the figure is inactive: -19.6%; as for `Cc1ccc(C(=O)NCC2(N3CCCCC3)CCCCC2)cc1`, inactive: 30.9%.
On to `CC(C)N1C(=O)CC2(CCN(CCOC(=O)C(O)(c3ccccc3)c3ccccc3)CC2)C1=O`, for which the inhibition was inactive: -14.7%.
As for `CCN(CC)CC(C)C(C)OC(=O)C(O)(c1ccccc1)c1ccccc1` (centres undefined), the figure is inactive: -5.3%.
As for `COc1cc(SC)ccc1C(=O)NCC1(N(C)C)CCCCC1`, the figure is inactive: -8.26%.
